{"sequences": {"note": "Chains of the proteins cited; added tags and fusions are not shown.", "UniProt Q15858, whole entry": "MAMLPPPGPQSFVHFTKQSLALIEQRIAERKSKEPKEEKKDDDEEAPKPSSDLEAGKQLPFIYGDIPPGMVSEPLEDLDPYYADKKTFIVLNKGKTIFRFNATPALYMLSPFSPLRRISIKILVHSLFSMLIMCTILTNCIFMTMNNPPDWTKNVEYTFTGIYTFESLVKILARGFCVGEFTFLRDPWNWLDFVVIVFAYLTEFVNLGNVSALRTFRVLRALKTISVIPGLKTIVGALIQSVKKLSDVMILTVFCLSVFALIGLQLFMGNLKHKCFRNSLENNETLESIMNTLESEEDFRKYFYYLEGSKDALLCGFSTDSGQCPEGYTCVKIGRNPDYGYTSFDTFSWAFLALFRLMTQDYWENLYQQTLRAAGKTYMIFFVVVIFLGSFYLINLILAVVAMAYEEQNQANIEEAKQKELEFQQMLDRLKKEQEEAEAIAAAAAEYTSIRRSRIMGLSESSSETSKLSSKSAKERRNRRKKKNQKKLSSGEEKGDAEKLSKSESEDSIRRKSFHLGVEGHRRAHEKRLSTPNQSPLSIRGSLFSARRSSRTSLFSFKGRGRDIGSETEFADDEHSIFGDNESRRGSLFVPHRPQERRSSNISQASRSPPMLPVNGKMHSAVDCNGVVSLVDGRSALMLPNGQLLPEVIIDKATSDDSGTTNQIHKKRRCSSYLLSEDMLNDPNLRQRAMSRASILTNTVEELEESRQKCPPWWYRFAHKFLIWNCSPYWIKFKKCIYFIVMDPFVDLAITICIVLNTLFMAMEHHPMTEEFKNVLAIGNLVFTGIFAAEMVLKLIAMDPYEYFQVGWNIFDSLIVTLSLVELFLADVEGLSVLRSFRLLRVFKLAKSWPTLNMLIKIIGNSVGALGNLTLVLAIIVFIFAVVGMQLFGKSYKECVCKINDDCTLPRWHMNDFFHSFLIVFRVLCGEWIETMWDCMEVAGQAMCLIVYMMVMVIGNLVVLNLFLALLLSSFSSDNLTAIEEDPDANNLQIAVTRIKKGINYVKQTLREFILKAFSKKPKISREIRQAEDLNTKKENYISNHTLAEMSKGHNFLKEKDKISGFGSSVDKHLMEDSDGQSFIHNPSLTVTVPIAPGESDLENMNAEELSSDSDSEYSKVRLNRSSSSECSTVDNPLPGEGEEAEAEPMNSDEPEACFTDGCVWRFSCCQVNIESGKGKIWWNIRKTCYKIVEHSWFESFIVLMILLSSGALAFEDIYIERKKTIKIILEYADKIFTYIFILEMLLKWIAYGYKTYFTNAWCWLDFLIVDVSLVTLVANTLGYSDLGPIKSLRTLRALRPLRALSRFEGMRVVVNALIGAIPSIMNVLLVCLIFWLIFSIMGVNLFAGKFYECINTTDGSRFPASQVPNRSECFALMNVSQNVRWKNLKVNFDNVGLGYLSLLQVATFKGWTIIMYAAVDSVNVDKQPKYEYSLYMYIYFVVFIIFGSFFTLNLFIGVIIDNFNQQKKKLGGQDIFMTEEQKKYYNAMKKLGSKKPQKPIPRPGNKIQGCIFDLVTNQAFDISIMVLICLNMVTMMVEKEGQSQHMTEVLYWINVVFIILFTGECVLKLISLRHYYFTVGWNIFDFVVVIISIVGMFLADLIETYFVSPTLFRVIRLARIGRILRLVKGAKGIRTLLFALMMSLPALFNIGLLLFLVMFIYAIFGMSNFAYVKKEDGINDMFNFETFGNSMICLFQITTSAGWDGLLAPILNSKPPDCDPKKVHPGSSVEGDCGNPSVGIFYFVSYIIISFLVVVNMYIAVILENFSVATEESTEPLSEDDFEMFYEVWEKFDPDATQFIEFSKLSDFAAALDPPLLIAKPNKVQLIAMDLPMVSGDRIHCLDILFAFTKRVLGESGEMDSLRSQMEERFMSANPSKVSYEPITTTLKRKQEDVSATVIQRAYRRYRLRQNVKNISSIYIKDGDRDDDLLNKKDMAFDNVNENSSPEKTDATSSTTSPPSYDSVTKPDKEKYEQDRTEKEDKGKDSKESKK"}, "source": "paper PMC3121796", "about": "(PLoS ONE, 2011)", "target": "T1, human Nav1.7 (hNav1.7) (Homo sapiens, UniProt Q15858)", "T1 construct": "expressed in transfected cells; host or cells: HEK293", "assay": "whole-cell patch-clamp assay, inhibition of hNav1.7 currents", "assay_type": "cell-based", "details": "HEK293 cells transiently transfected with human Nav1.7, room temperature, currents elicited by depolarization to −10 mV, dose-response curve, data points mean ± S.E., each from three to five experimental cells", "note": "pIC50: −log10 of the molar value."}
{"smiles": "CC(C)C[C@H](NC(=O)[C@H](CCCCN)NC(=O)[C@H](Cc1c[nH]c2ccccc12)NC(=O)[C@H](CCCCN)NC(=O)[C@@H]1CSSC[C@@H]2NC(=O)[C@H](CCC(=O)O)NC(=O)[C@H](CC(N)=O)NC(=O)[C@H](CCCCN)NC(=O)CNC(=O)[C@@H]3CCCN3C(=O)[C@H]([C@@H](C)O)NC(=O)[C@@H]3CSSC[C@H](NC(=O)[C@H](C(C)C)NC(=O)[C@H](CCCNC(=N)N)NC(=O)[C@H](CC(N)=O)NC(=O)[C@@H]4CCCN4C(=O)[C@H](CSSC[C@H](NC(=O)[C@H](C)N)C(=O)N[C@@H](CCCCN)C(=O)NCC(=O)N[C@@H](C(C)C)C(=O)N[C@@H](Cc4ccccc4)C(=O)N[C@@H](CC(=O)O)C(=O)N[C@@H](C)C(=O)N3)NC2=O)C(=O)N[C@@H](CO)C(=O)N[C@@H](CC(=O)O)C(=O)N[C@@H](CCCCN)C(=O)N[C@@H](Cc2cnc[nH]2)C(=O)N[C@@H](CCCCN)C(=O)N[C@@H](Cc2c[nH]c3ccccc23)C(=O)N1)C(=O)O", "note": "[HWTX-I]", "values": [{"measurement": "pIC50", "result": 6.20}]}
{"smiles": "CC(C)C[C@H](NC(=O)[C@H](CCCCN)NC(=O)[C@H](Cc1c[nH]c2ccccc12)NC(=O)[C@H](CCCCN)NC(=O)[C@@H]1CSSC[C@@H]2NC(=O)[C@H](CCC(=O)O)NC(=O)[C@H](CC(N)=O)NC(=O)[C@H](CCCCN)NC(=O)CNC(=O)[C@@H]3CCCN3C(=O)[C@H]([C@@H](C)O)NC(=O)[C@@H]3CSSC[C@H](NC(=O)[C@H](C(C)C)NC(=O)[C@H](CCCNC(=N)N)NC(=O)[C@H](CC(N)=O)NC(=O)[C@@H]4CCCN4C(=O)[C@H](CSSC[C@H](NC(=O)[C@H](C)N)C(=O)N[C@@H](CCCCN)C(=O)NCC(=O)N[C@@H](C(C)C)C(=O)N[C@@H](Cc4ccccc4)C(=O)N[C@@H](CC(=O)O)C(=O)N[C@@H](C)C(=O)N3)NC2=O)C(=O)N[C@@H](CO)C(=O)N[C@@H](CC(=O)O)C(=O)N[C@@H](CCCCN)C(=O)N[C@@H](Cc2cnc[nH]2)C(=O)N[C@@H](CCCCN)C(=O)N[C@@H](Cc2c[nH]c3ccccc23)C(=O)N1)C(=O)O", "note": "[rHWTX-I]", "values": [{"measurement": "pIC50", "result": 6.19}]}
